According to PubChem BioAssay (NCI):
Some of these compounds have results that are not shown, active ones among them.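 Assay format: 96-well plates, 48-hour exposure. Abbreviation: GI50, concentration required for 50% inhibition of growth.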

How the values were obtained:
Experiment in all cases: DTP human tumour cell line panel, 48 h; in the data active means GI50 below about 0.43 µM; inactive means the rest
[1] = system: CAKI-1 renal
[2] = system: SF-539 CNS
[3] = system: NCI/ADR-RES ovarian
[4] = system: HL-60(TB) leukemia
[5] = system: RXF 393 renal
[6] = system: SF-268 CNS
[7] = system: SNB-19 CNS
[8] = system: COLO 205 colon
[9] = system: SK-OV-3 ovarian
[10] = system: NCI-H226 lung
[11] = system: OVCAR-8 ovarian
[12] = system: SW-620 colon
[13] = system: LOX IMVI melanoma
[14] = system: SK-MEL-5 melanoma
[15] = system: MDA-MB-231 breast
[16] = system: PC-3 prostate
[17] = system: HT29 colon
[18] = system: K-562 leukemia
[19] = system: UACC-257 melanoma
[20] = system: SK-MEL-28 melanoma
[21] = system: U251 CNS
[22] = system: NCI-H522 lung
[23] = system: BT-549 breast
[24] = system: SNB-75 CNS
[25] = system: NCI-H23 lung
[26] = system: IGROV1 ovarian
[27] = system: DU-145 prostate
[28] = system: HCT-15 colon
[29] = system: MOLT-4 leukemia
[30] = system: RPMI-8226 leukemia
[31] = system: HCT-116 colon
[32] = system: UACC-62 melanoma
[33] = system: MALME-3M melanoma
[34] = system: A549 NSCLC
[35] = system: ACHN renal
[36] = system: KM12 colon
[37] = system: MDA-N
[38] = system: M14 melanoma
[39] = system: OVCAR-3 ovarian
[40] = system: SF-295 CNS
[41] = system: SN12C renal
[42] = system: CCRF-CEM leukemia
[43] = system: T-47D breast
[44] = system: OVCAR-5 ovarian
[45] = system: MDA-MB-435
[46] = system: TK-10 renal
[47] = system: MCF7 breast
[48] = system: 786-0 renal
[49] = system: HCC-2998 colon
[50] = system: UO-31 renal
[51] = system: HOP-62 NSCLC
[52] = system: EKVX NSCLC
[53] = system: SR leukemia

Measured: GI50

CN1CCC=C(COC(=O)C(O)(c2ccccc2)C2CCCC2)C1 (stereo not drawn)
inactive: [1] > 100 µM | [2] 78.7 µM | [3] > 100 µM | [4] > 100 µM | [5] > 100 µM | [6] > 100 µM | [7] > 100 µM | [8] > 100 µM | [9] > 100 µM | [10] > 100 µM | [11] > 100 µM | [12] > 100 µM | [13] > 100 µM | [14] 87.1 µM | [15] > 100 µM | [16] > 100 µM | [17] 46.8 µM | [18] 38.1 µM | [19] 31.7 µM | [20] > 100 µM | [21] > 100 µM | [22] > 100 µM | [23] 30.1 µM | [24] > 100 µM | [25] > 100 µM | [26] > 100 µM | [27] > 100 µM | [28] > 100 µM | [29] 53.4 µM | [30] > 100 µM | [31] > 100 µM | [32] > 100 µM | [33] 71.9 µM | [34] > 100 µM | [35] > 100 µM | [36] > 100 µM | [37] > 100 µM | [38] 71 µM | [39] > 100 µM | [40] > 100 µM | [41] > 100 µM | [42] > 100 µM | [43] > 100 µM | [44] > 100 µM | [45] > 100 µM | [46] > 100 µM | [47] > 100 µM | [48] > 100 µM | [49] 41.1 µM | [50] 29.3 µM | [51] > 100 µM | [52] > 100 µM | [53] 94.8 µM
